These results are taken from PMC3481835 (Clinical pharmacology and therapeutics, 2011).

Protein sequences, listed by entry. Tags and fused reporters are not part of them.
UniProt P08684, whole entry: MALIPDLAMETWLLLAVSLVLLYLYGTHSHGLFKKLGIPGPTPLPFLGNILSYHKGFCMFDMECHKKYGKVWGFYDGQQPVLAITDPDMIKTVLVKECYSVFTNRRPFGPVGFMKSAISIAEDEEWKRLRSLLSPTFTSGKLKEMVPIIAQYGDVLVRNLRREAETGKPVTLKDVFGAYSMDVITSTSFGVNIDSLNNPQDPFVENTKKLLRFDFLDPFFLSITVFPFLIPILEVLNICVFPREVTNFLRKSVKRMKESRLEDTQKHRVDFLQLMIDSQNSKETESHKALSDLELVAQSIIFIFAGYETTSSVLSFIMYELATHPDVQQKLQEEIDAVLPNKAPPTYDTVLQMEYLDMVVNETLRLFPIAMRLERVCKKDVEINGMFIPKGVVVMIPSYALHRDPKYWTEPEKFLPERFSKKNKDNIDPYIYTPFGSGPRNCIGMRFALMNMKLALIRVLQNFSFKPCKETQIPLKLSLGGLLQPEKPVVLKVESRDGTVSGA

Data set [1] addresses T1, CYP3A4 (Homo sapiens, UniProt P08684). The data set can be described thus: In vivo IC50 and maximum inhibition.
Data set [2] has as its target T1, CYP3A4. The data set is classed as in vivo.
The target of data set [3] is T1, CYP3A4. The data set can be described thus: Formation clearance. The format is in vivo.
Where [4] appears, read: 200 or 400 mg itraconazole, p<0.017.

As for `CCC(C)n1ncn(-c2ccc(N3CCN(c4ccc(OCC5COC(Cn6cncn6)(c6ccc(Cl)cc6Cl)O5)cc4)CC3)cc2)c1=O` (stereo not drawn) [itraconazole], the “maximum inhibition observed in vivo, cortisol and cortisone 6β-hydroxylation” value at CYP3A4 [1] (after itraconazole administration) came out at 60%. In addition, at CYP3A4 [1] (in vivo), the “RKi (IC50,in vitro/IC50,in vivo), CLf of cortisone and cortisol 6β-hydroxylation” value amounted to 2.0; the “maximum inhibition from in vivo IC50 fits, 6β-hydroxycortisol CLf” value is reported as 61%; the “maximum inhibition from in vivo IC50 fits, 6β-hydroxycortisone CLf” value is reported as 52%; the “maximum inhibition from in vivo IC50 fits, combined CLf” value was determined as 59%. For the same molecule, at CYP3A4 [2] (24-48 hours after 400 mg), the “CYP3A4 inhibition (decrease in apparent CLf)” value is reported as 48-56%. In addition, the “decrease in each apparent CLf” value on CYP3A4 [2] (200 and 400 mg doses, p<0.017) is reported as 40-48%. On CYP3A4 [3] (50 mg itraconazole, not significant), the “decrease in CLf of cortisol and cortisone hydroxylation” value came to 24%. Also, at CYP3A4 [3] (200 mg and 400 mg itraconazole), the “decrease in CLf of cortisol and cortisone hydroxylation” value is listed as “up to 60%”. Also, on CYP3A4 [3] (400 mg itraconazole, p=0.017), the “decrease in 6β-hydroxycortisol CLf” value is 51%. On CYP3A4 [3] (setting [4]), the “decrease in 6β-hydroxycortisone CLf” value was 34-41%; the “decrease in combined CLf of 6β-hydroxycortisone and 6β-hydroxycortisol” value is on record as 40-49%.
